Like-named read-outs stand apart in the source and are kept apart here.
How the values were obtained:
[1] = cited from earlier work
[2] = for A1C: baseline 5.0; for PSA: baseline 7.5; for LDL: baseline 103
Excerpt: METHOD EXAMPLE. Blood chemistry. […] Prior to the start of dosing, a baseline blood draw is obtained for hematology, chemistry, CRP measurement, and metabolite analyses. After the start of dosing, blood draws are obtained monthly.

inflammatory cytokines = conditions: female mice treated from 18 months to 29 months, compared to aged controls
Experimental: METHOD EXAMPLE. Cytokine Levels in Aged Mice. Female mice (18 months) are divided into treatment and untreated groups. Baseline levels of 30 inflammatory cytokines are measured. […] Following treatment, levels of 30 inflammatory cytokines are measured from serum samples and compared to untreated controls.

C-reactive protein (CRP) = system: C-reactive protein (CRP)
Excerpt: METHOD EXAMPLE. […] Prior to the start of dosing, a baseline blood draw is obtained for hematology, chemistry, CRP measurement, and metabolite analyses. After the start of dosing, blood draws are obtained monthly.

SMILES | serious adverse events in clinical trials [1] | toxicological profile ([1]; in vivo) | relative levels of good versus bad cholesterol ([2]; human volunteer, vs baseline) | A1C ([2]; 10 Months) | PSA ([2]; 10 Months) | LDL ([2]; 10 Months) | A1C ([2]; 12 Months) | PSA ([2]; 12 Months) | LDL ([2]; 12 Months) | average of 30 cytokines in serum (inflammatory cytokines) | decrease in CRP level, Subject 1 (C-reactive protein (CRP); Subject 1, after only 3 months of treatment vs baseline) | decrease in CRP level, Subject 2 (C-reactive protein (CRP); Subject 2, starting low level of CRP, 3-7 months of treatment vs baseline) | change in CRP level in treated subjects (C-reactive protein (CRP); all treated subjects, 3-7 months of treatment vs baseline) | average decrease in CRP level (C-reactive protein (CRP); human volunteers, two 500 mg CaAKG tablets daily, 3-7 months of treatment vs baseline (t=0))
O=C(O)CCC(=O)C(=O)O [AKG, 2-oxopentanedioic acid] | No serious adverse events | non-toxic | improves | – | – | – | – | – | – | – | – | – | – | –
O.O=C([O-])CCC(=O)C(=O)[O-].[Ca+2] [Ca-AKG, calcium alpha-ketoglutarate monohydrate] | No serious adverse events | – | – | 5.1% | 10.1 ng/mL | 98 mg/dL | 4.9% | 7.7 ng/mL | 95 mg/dL | general reduction | 84% | 25% | A decrease in CRP level was observed in all treated subjects | 54%

Reference: patent publication US20230255912A1, “COMPOSITIONS AND METHODS FOR TREATING CRP-MEDIATED DISEASES” (Ponce de Leon Health Designated Activity Company, priority 2020, published 2023)
